# Test results from US8865653B2, “Method of treatment for immunogenic treatment resistant cancer” (Institut Gustave Roussy, priority 2010, dated 2014).
# Tested on: MCA205 cells
# Experiment: Anticancer vaccination with doxorubicin-treated MCA205 ± HMGB1 siRNA ± DEN S
# Conditions: with or without addition of exogenous DEN S
compound,measurement,value
"COc1cccc2c1C(=O)c1c(O)c3c(c(O)c1C2=O)C[C@@](O)(C(=O)CO)C[C@@H]3O[C@H]1C[C@H](N)[C@H](O)[C@H](C)O1 [DX, doxorubicin]","tumor progression after vaccine of doxorubicin-treated, HMGB1-expressing cells",efficient in reducing tumor progression
